Like-named read-outs stand apart in the source and are kept apart here.
System: Enterovirus D68 (US/KY/14-18953 strain)
Test: CPE inhibition assay
Format: cell-based
Settings: for EC50: Enterovirus D
[1] = EVD68, RD, read-out: 50% inhibition of viral cytopathic effect (EC50) and 90% inhibition (EC90) of virus yield, range against EV-D68
[2] = RD, read-out: EC50, 50% effective (virus-inhibitory) concentration

SMILES | SI, selectivity index (CC50 / EC50) | EC50 [1] [µM] | EC50 [2] [µM]
CCOC(=O)/C=C/[C@H](C[C@@H]1CCNC1=O)NC(=O)[C@@H](CC(=O)[C@@H](NC(=O)c1cc(C)on1)C(C)C)Cc1ccc(F)cc1 [Rupintrivir, rupintrivir] | 29130 | 0.0022 to 0.0053 | 0.0046 ± 0.0027
CCOC(=O)c1ccc(OCCC2CCN(c3ccc(C)nn3)CC2)cc1 [Pirodavir, pirodavir] |  | 7 to 13 | 13 ± 7
Cc1cc(CCCOc2c(C)cc(-c3noc(C(F)(F)F)n3)cc2C)on1 [Pleconaril, pleconaril] | 87 | 0.01 to 0.3 | 0.13 ± 0.03
Nc1cc2nc[nH]c2c(=O)[nH]1 [3-Deazaguanine, 3-deazaguanine] | 45 | 7 to 13 | 8 ± 2.3
CC(C)S(=O)(=O)n1c(N)nc2ccc(/C(=N/O)c3ccccc3)cc21 [Enviroxime, enviroxime] |  | 0.01 to 0.3 | 0.31 ± 0.22
NC(=O)c1ncn([C@@H]2O[C@H](CO)[C@@H](O)[C@H]2O)n1 [Ribavirin, ribavirin] |  | 80 to 135 | 135 ± 74

— PMC5100981 (Antiviral research, 2016)
